Assay results reported in article PMC11117661, “Development of a Novel In Silico Classification Model to Assess Reactive Metabolite Formation in the Cysteine Trapping Assay and Investigation of Important Substructures” (Biomolecules, 2024).

Assay: cysteine trapping assay ([35S]cysteine, HPLC with radiomatic detector) for reactive metabolites
Conditions: human liver microsome 2 mg/mL, L-[35S]-Cysteine, NADPH, 37 °C, 2 h

SMILES: Cc1cc2c(s1)Nc1ccccc1N=C2N1CCN(C)CC1 [Olanzapine]
- RI integrated area: 4161.2 count
